In this assay the target is ALK WT (Homo sapiens (Human), UniProt Q9UM73). The conditions noted are these: read-out: ALK WT (IC50 μM); ALK enzyme, HTRF. For orientation: Time-resolved FRET reads energy transfer from a long-lived donor to a nearby acceptor.

Amino acid sequences for entries named in this document (tags omitted). Residues count along the entry.
UniProt Q9UM73, 19-1620: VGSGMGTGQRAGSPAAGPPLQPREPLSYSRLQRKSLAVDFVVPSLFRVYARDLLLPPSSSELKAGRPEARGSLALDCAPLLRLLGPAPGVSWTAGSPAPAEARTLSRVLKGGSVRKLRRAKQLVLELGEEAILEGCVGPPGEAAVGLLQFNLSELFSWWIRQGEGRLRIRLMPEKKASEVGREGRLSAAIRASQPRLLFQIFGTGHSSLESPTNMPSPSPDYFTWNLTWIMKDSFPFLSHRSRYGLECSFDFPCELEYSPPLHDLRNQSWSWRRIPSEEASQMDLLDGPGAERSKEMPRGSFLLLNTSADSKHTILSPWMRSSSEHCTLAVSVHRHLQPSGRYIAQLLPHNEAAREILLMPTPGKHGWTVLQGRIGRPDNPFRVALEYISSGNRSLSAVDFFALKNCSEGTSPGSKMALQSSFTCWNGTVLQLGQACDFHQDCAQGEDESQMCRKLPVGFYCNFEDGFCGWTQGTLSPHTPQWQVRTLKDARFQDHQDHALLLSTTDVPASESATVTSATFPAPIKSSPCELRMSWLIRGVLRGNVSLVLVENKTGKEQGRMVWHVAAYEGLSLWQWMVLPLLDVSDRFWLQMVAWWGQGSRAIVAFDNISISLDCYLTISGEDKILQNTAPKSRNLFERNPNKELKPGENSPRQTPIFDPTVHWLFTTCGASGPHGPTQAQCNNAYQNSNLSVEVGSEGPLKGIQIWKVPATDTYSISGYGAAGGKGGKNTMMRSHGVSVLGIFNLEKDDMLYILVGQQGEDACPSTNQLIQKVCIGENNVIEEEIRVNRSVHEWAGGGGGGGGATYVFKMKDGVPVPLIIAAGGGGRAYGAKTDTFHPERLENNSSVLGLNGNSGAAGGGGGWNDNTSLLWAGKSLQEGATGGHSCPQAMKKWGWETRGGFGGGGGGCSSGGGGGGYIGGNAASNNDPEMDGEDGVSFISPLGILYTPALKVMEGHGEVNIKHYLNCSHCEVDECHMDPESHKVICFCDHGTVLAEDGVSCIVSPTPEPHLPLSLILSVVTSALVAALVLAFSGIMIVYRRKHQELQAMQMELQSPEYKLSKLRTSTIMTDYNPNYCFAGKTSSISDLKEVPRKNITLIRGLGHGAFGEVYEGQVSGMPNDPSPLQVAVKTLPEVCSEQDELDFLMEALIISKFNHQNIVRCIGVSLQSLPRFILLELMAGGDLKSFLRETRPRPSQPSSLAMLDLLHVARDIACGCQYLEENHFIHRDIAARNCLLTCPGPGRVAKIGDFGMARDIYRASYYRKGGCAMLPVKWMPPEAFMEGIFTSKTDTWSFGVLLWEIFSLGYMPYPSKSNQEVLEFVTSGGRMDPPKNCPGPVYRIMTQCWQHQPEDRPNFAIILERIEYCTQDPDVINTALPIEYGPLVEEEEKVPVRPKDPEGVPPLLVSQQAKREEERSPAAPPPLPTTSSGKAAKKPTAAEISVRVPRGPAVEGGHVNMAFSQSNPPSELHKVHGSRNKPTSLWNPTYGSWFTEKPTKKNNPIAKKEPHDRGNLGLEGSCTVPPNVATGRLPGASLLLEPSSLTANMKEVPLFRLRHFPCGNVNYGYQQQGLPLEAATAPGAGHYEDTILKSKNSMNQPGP

`COc1cc(C(C)(C)C#N)c(C)cc1Nc1ncc(Cl)c(Nc2ccccc2S(=O)(=O)C(C)C)n1` [Example 54, 2-(4-((5-chloro-4-((2-(isopropylsulfonyl)phenyl)amino)pyrimidine-2-yl)amino)-5-methoxy-2-methylphenyl)-2-methylpropanenitrile]: the IC50 (commonly the concentration that inhibits the measured activity by half) is 0.2 µM.

Turning to `COc1cc(C(C)(C)N)c(C)cc1Nc1ncc(Cl)c(Nc2ccccc2S(=O)(=O)C(C)C)n1` [Example 57, N2-(4-(2-aminopropane-2-yl)-2-methoxy-5-methylphenyl)-5-chloro-N4-(2-(isopropylsulfonyl)phenyl)pyrimidine-2,4-diamine], the IC50 amounted to 0.0015 µM.

For `COc1cc(C(C)(C)NC=O)c(C)cc1Nc1ncc(Cl)c(Nc2ccccc2S(=O)(=O)C(C)C)n1` [Example 61, N-(2-(4-((5-chloro-4-((2-(isopropylsulfonyl)phenyl)amino)pyrimidine-2-yl)amino)-5-methoxy-2-methylphenyl)propane-2-yl)formamide], the IC50 was 0.0021 µM.

As for `COc1cc(CNC=O)c(C)cc1Nc1ncc(Cl)c(Nc2ccccc2S(=O)(=O)C(C)C)n1` [Example 71, N-(4-((5-chloro-4-((2-(isopropylsulfonyl)phenyl)amino)pyrimidine-2-yl)amino)-5-methoxy-2-methylbenzyl)formamide], the IC50 was determined as 0.00472 µM.

These data come from US10100019B2.
